Laboratory results from patent publication US7229825B2, “Double-transfected cell line useful for the identification of transport inhibitors” (Deutches Krebsforschungszentrum Stiftung des Offentlichen …, priority 2001, dated 2007).

System: human OATP8 and MRP2 (MDCK-MRP2/OATP8 cells)
Experiment: Inhibition of transcellular [3H]BSP transport in MDCK-MRP2/OATP8 cells
Assay type: cell-based
Conditions: different concentrations, 1 μM [3H]BSP, 30 min, 37° C.

HSA: human serum albumin
effect on intracellular accumulation of [3H]BSP in MDCK-MRP2/OATP8 cells: strongly inhibited | effect on transcellular transport of [3H]BSP in MDCK-MRP2/OATP8 cells: diminished
